These compounds were tested on 38 different kinases (assay: not given). Settings: 10 μM.

By UniProt entry, the sequences of proteins in these tests, tags left out. Where a name states a change or a piece, a line headed by the entry shows the natural chain unless it says otherwise.
UniProt P53779: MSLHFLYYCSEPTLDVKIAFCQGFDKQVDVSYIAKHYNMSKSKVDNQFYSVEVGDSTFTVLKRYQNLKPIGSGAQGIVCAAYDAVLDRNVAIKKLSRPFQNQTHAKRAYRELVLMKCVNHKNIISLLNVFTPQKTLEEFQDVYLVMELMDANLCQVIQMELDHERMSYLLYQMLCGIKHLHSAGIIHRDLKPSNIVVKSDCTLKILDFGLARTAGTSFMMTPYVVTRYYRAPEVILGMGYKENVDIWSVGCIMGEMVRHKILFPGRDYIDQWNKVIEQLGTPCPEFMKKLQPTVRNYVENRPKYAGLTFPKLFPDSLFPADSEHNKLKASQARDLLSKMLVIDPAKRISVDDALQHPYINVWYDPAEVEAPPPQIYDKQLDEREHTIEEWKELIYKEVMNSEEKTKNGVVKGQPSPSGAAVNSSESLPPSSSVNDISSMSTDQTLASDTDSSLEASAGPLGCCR

Compound | selectivity profile in kinase panel
NC(=O)N1Cc2nc(-c3ccc(Cl)c(Cl)c3)n(-c3ccnc(N[C@@H]4CCN(C(=O)C5CC5)C4)n3)c2C1 [Compound 16c, (R)-1-(2-((1-(cyclopropanecarbonyl)pyrrolidin-3-yl)amino)pyrimidin-4-yl)-2-(3,4-dichlorophenyl)-4,6-dihydropyrrolo[3,4-d]imidazole-5(1H)-carboxamide] | did not show a selective profile result of JNK3

These compounds were tested against JNK3 (Homo sapiens, UniProt P53779) (assay: biochemical). Settings: not given.

IC50 | Compound
30 to 100 nM | NC(=O)N1Cc2nc(-c3ccc4c(c3)OCO4)n(-c3ccnc(N[C@@H]4CCN(C(=O)C5CC5)C4)n3)c2C1 [Compound 16k, (R)-2-(benzo[d][1,3]dioxol-5-yl)-1-(2-((1-(cyclopropanecarbonyl)pyrrolidin-3-yl)amino)pyrimidin-4-yl)-4,6-dihydropyrrolo[3,4-d]imidazole-5(1H)-carboxamide]
< 30 nM | NC(=O)N1Cc2nc(-c3ccc4ccccc4c3)n(-c3ccnc(N[C@H]4CCCN(C(=O)C5CC5)C4)n3)c2C1 [Compound 16g, (S)-1-(2-((1-(cyclopropanecarbonyl)piperidin-3-yl)amino)pyrimidin-4-yl)-2-(naphthalen-2-yl)-4,6-dihydropyrrolo[3,4-d]imidazole-5(1H)-carboxamide]
< 30 nM | NC(=O)N1Cc2nc(-c3ccc4c(c3)CCO4)n(-c3ccnc(N[C@@H]4CCN(C(=O)C5CC5)C4)n3)c2C1 [Compound 16o, (R)-1-(2-((1-(cyclopropanecarbonyl)pyrrolidin-3-yl)amino)pyrimidin-4-yl)-2-(2,3-dihydrobenzofuran-5-yl)-4,6-dihydropyrrolo[3,4-d]imidazole-5(1H)-carboxamide]
< 30 nM | NC(=O)N1Cc2nc(-c3ccc(Cl)c(Cl)c3)n(-c3ccnc(N[C@H]4CCCN(C(=O)C5CCCC5)C4)n3)c2C1 [Compound 16f, (S)-1-(2-((1-(cyclopentanecarbonyl)piperidin-3-yl)amin)pyrimidin-4-yl)-2-(3,4-dichlorophenyl)-4,6-dihydropyrrolo[3,4-d]imidazole-5(1H)-carboxamide]
100 to 10000 nM | NC(=O)N1Cc2nc(-c3ccc4c(c3)OCO4)n(-c3ccnc(N[C@H]4CCN(C(=O)C5CC5)C4)n3)c2C1 [Compound 16l, (S)-2-(benzo[d][1,3]dioxol-5-yl)-1-(2-((1-(cyclopropanecarbonyl)pyrrolidin-3-yl)amino)pyrimidin-4-yl)-4,6-dihydropyrrolo[3,4-d]imidazole-5(1H)-carboxamide]
< 30 nM | NC(=O)N1Cc2nc(-c3ccc(Cl)c(Cl)c3)n(-c3ccnc(N[C@H]4CCCN(C(=O)C5CCC5)C4)n3)c2C1 [Compound 16e, (S)-1-(2-((1-(cyclobutanecarbonyl)piperidin-3-yl)amino)pyrimidin-4-yl)-2-(3,4-dichlorophenyl)-4,6-dihydropyrrolo[3,4-d]imidazole-5(1H)-carboxamide]
< 30 nM | NC(=O)N1Cc2nc(-c3ccc(Cl)c(Cl)c3)n(-c3ccnc(N[C@@H]4CCN(C(=O)C5CC5)C4)n3)c2C1 [Compound 16c, (R)-1-(2-((1-(cyclopropanecarbonyl)pyrrolidin-3-yl)amino)pyrimidin-4-yl)-2-(3,4-dichlorophenyl)-4,6-dihydropyrrolo[3,4-d]imidazole-5(1H)-carboxamide]
30 to 100 nM | NC(=O)N1Cc2nc(-c3ccc(Cl)c(Cl)c3)n(-c3ccnc(N[C@H]4CCN(C(=O)C5CC5)C4)n3)c2C1 [Compound 16d, (S)-1-(2-((1-(cyclopropanecarbonyl)pyrrolidin-3-yl)amino)pyrimidin-4-yl)-2-(3,4-dichlorophenyl)-4,6-dihydropyrrolo[3,4-d]imidazole-5(1H)-carboxamide]
< 30 nM | NC(=O)N1Cc2nc(-c3ccc4ccccc4c3)n(-c3ccnc(N[C@@H]4CCN(C(=O)C5CC5)C4)n3)c2C1 [Compound 16h, (R)-1-(2-((1-(cyclopropanecarbonyl)pyrrolidin-3-yl)amino)pyrimidin-4-yl)-2-(naphthalen-2-yl)-4,6-dihydropyrrolo[3,4-d]imidazole-5(1H)-carboxamide]
100 to 10000 nM | NC(=O)N1Cc2nc(-c3ccc4c(c3)CCO4)n(-c3ccnc(N[C@H]4CCN(C(=O)C5CC5)C4)n3)c2C1 [Compound 16p, (S)-1-(2-((1-(cyclopropanecarbonyl)pyrrolidin-3-yl)amino)pyrimidin-4-yl)-2-(2,3-dihydrobenzofuran-5-yl)-4,6-dihydropyrrolo[3,4-d]imidazole-5(1H)-carboxamide]

Same assay, conditions: JNK3 enzyme activity, Table 2; read-out: IC50

IC50 | Compound
30 to 100 nM | NC(=O)N1Cc2nc(-c3ccc4c(c3)OCO4)n(-c3ccnc(N[C@H]4CCCN(C(=O)C5CC5)C4)n3)c2C1 [Compound 16j, (S)-2-(benzo[d][1,3]dioxol-5-yl)-1-(2-((1-(cyclopropanecarbonyl)piperidin-3-yl)amino)pyrimidin-4-yl)-4,6-dihydropyrrolo[3,4-d]imidazole-5(1H)-carboxamide]

Reference: patent US12692268B2 (priority 2020, dated 2026)
